Results reported in PMC7723054.
The list shows a part of the results.

T1: LIN28A (human?, UniProt Q9H9Z2 1-209)
T1 sequence: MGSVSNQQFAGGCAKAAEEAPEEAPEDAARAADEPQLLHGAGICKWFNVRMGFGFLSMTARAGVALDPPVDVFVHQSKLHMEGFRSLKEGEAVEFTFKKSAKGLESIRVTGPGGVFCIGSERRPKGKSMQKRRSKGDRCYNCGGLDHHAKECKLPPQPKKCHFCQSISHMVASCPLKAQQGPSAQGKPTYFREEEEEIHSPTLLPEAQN

T2: CIRBP (Homo sapiens, UniProt Q14011 1-172)
T2 sequence: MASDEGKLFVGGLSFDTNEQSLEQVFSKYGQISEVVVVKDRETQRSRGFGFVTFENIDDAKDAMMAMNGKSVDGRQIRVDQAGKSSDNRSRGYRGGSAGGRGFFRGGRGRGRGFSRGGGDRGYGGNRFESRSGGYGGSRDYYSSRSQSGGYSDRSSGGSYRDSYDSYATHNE

T3: DHX36 (Homo sapiens, UniProt Q9H2U1 1-1008)
T3 sequence: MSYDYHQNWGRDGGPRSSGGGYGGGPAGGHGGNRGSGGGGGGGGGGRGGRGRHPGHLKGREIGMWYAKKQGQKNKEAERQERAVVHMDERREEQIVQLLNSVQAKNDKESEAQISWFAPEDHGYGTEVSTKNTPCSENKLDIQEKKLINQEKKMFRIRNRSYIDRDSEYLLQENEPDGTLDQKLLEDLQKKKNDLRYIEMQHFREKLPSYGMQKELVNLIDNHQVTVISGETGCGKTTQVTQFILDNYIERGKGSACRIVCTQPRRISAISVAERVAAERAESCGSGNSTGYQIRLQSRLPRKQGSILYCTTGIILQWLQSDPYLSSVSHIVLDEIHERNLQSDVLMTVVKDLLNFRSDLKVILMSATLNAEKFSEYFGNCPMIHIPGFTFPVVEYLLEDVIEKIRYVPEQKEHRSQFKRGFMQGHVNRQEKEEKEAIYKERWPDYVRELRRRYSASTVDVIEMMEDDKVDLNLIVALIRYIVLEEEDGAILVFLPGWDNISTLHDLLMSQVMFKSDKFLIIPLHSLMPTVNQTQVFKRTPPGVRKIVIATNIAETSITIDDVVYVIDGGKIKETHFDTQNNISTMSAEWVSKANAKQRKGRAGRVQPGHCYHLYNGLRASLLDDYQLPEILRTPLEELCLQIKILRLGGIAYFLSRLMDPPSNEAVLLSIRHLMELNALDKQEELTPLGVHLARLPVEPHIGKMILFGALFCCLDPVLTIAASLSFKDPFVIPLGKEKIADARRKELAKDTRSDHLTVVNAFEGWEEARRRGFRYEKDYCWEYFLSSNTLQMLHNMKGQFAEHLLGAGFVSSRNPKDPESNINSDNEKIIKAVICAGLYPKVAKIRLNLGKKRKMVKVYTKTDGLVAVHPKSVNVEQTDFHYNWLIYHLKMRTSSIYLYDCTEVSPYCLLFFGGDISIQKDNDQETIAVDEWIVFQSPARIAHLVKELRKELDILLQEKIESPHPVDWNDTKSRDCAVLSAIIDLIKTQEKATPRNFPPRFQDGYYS

B1: hsa-mir-98 (structured_RNA)
RNA: GGGACUGAGCGUUACGUGAACUAUACCUGGUGUACGAAGUUUCAGCAUUGUUGUGGGGUAGGGAUAUUAGGCCCCAAUUAGAAGAUAACUAUGCUGAAGCUUCGUGCAC
B2: hsa-mir-6884 (structured_RNA)
RNA: GGGAACAUGACACUGUUCGCUGUGCGGAGGUGUACGAAGUUUCAGCGUUGGCUCAAGAAAGGGAGAUAGAUGGUAGCCCGCUGAAGCUUCGUGCAC
B3: hsa-mir-516b-1 (structured_RNA)
RNA: GGGCCAAGAACUACCCGGACACCAAAACGGUGUACGAAGUUUCAGCAGCACUUUCUGUUUUGUGAAAGAAAAGAAAGUGCUGCUGAAGCUUCGUGCAC
B4: hsa-mir-330 (structured_RNA)
RNA: GGGACUGAUACCGCAGCUAGGCCAUCAAGGUGUACGAAGUUUCAGCAGGCUCUGCAAGAUCAACCGAGCAGCUGAAGCUUCGUGCAC
B5: hsa-mir-4534 (structured_RNA)
RNA: GGGAAGAGAAUAAAUGCCGUAUACCGACGGUGUACGAAGUUUCAGCAGCCAAAAUCACCAGGGAGCUGAAGCUUCGUGCAC
B6: hsa-mir-887 (structured_RNA)
RNA: GGGAAGCAGGAAUCUCAUUCGUGUAUGGGGUGUACGAAGUUUCAGCAGACUCUGGAUUUUACACUUGGAGUGGCUGAAGCUUCGUGCAC
B7: hsa-mir-7978 (structured_RNA)
RNA: GGGAAGAGGCUAGACAACUGAGACUAGGGGUGUACGAAGUUUCAGCCUCAAGUCCUCUAUUUCUUUGAAGCUGAAGCUUCGUGCAC
B8: hsa-mir-6845 (structured_RNA)
RNA: GGGACGUGGGUACAACUCACGACUCCCUGGUGUACGAAGUUUCAGCGAGCCCUUGCACACCACCAGCCUCGCUGAAGCUUCGUGCAC
B9: hsa-mir-1295b (structured_RNA)
RNA: GGGAAUGCUAAUGACGAGUUCCGGCGAAGGUGUACGAAGUUUCAGCUAAUCACAGGCCACAUUUCUGAAUAGCUGAAGCUUCGUGCAC
B10: hsa-mir-5094 (structured_RNA)
RNA: GGGAAGACGACACGUCACUUCACACCGGGGUGUACGAAGUUUCAGCACCUAACACACUGCCUUUUAUGUGGUAGGUGCUGAAGCUUCGUGCAC
B11: hsa-mir-4306 (structured_RNA)
RNA: GGGACGUAUGUAGAGGAUUACGCGCACAGGUGUACGAAGUUUCAGCUCCAGAGGCAUCCCUAACCCAGAAUCUUUUGACUGUCCUCUGGAGCUGAAGCUUCGUGCAC
B12: hsa-mir-6854 (structured_RNA)
RNA: GGGACAUCGCCCAUGACGAAUGAAUCCGGGUGUACGAAGUUUCAGCUGCUGAUGUCAUCAGUCAUAACUUCUGCGGCUGAAGCUUCGUGCAC
B13: hsa-mir-5692c-2 (structured_RNA)
RNA: GGGAGGUCCGUAGACACUCUACCACGUUGGUGUACGAAGUUUCAGCGAGUCCUAUUUAUUUUUAGGAUAUUAGGAAGCUGAAGCUUCGUGCAC
B14: hsa-mir-8066 (structured_RNA)
RNA: GGGAAGUCAACACUGCGGCCCCUAUACGGGUGUACGAAGUUUCAGCAUUGUUGCCUCUGCAUGUUACAAUGCUGAAGCUUCGUGCAC
B15: hsa-mir-1184-3_1184-2_1184-1 (structured_RNA)
RNA: GGGAAGCUGAUCUCGCGGAUUACUAGCGGGUGUACGAAGUUUCAGCACAGUGGCCACAUCUCCACGCUGAAGCUUCGUGCAC
B16: hsa-mir-1273a (structured_RNA)
RNA: GGGACAGGCAUUCAUUCUCAGUGGCGAGGGUGUACGAAGUUUCAGCACCCGGGUGGUGGAGGUUGCAGUGAGCCAAGAUUGCGCCACUGCACUCCAGCCUGGGCGCUGAAGCUUCGUGCAC
B17: hsa-mir-3198-2 (structured_RNA)
RNA: GGGAAGACCUACGUCAGGAUCUCGAAACGGUGUACGAAGUUUCAGCAGCAGUACCAGAUGGUUCUGUGGGCUGAAGCUUCGUGCAC
B18: hsa-mir-6850 (structured_RNA)
RNA: GGGAAGUAGUACGAGCCUUGCAUGUGGCGGUGUACGAAGUUUCAGCCGGGGCGGGAGGGGAAGGGACGCCCGGCUGAAGCUUCGUGCAC
B19: hsa-mir-7844 (structured_RNA)
RNA: GGGAGGUCACGUAGGACCCUGUCUCGAAGGUGUACGAAGUUUCAGCUGUAAAUAACUACAAUUCUCUUAACUCCGUAGCAGUUGCGCUGAAGCUUCGUGCAC
B20: hsa-mir-103a-2 (structured_RNA)
RNA: GGGACCGACCAUCCACUCACAUACACCGGGUGUACGAAGUUUCAGCUGCCUUGUAGCAUUCAGGUCAAGCAGCUGAAGCUUCGUGCAC
B21: hsa-mir-603 (structured_RNA)
RNA: GGGAGCGAGAUAGUAGUUUCCGAAAGUUGGUGUACGAAGUUUCAGCCUUCCCAUUUAAAAGUAAUGGCACAGCUGAAGCUUCGUGCAC
B22: hsa-mir-711 (structured_RNA)
RNA: GGGACGUUAGGUGGACACGCAUUAUGUAGGUGUACGAAGUUUCAGCGCUGCAGGCAAAGCUGGGGGCUGAAGCUUCGUGCAC
B23: hsa-mir-1257 (structured_RNA)
RNA: GGGACGGUACCAGUUGAGGGAUAUUAAUGGUGUACGAAGUUUCAGCGACCCCCAUGCACCCCUGUGGGCCCCUGGCAUCGCUGAAGCUUCGUGCAC

Biological target: U1A (Homo sapiens, UniProt P09012)
Assay: FOREST: bead pull-down of RNA structure library v1, barcode microarray; U1A/LIN28A: 20 mM HEPES pH 7.5, 80 mM KCl, 20 mM NaCl, 10% glycerol, 2 mM DTT, 0.1 ug/uL BSA, 4 C; BG4/CIRBP/DHX36: 10 mM Tris-HCl pH 7.5, 100 mM KCl (or LiCl),; high values mean tight binding

Compared with B1, B2 is higher in binding signal: 1.1 z-score for the first, 1.11 z-score for the second.

Going from B3 to B4, the binding signal rises from 1.07 z-score to 1.14 z-score.

Going from B5 to B6, the binding signal rises from 1.11 z-score to 1.17 z-score.

Going from B7 to B8, the binding signal rises from 1.16 z-score to 6.27 z-score.

First: B9
Second: B10
The binding signal of the first is higher: 1.16 z-score for the first, 1.12 z-score for the second.

B11 and B12 are the same in binding signal: 1.08 z-score for the first, 1.08 z-score for the second.

First: B13
Second: B14
The binding signal of the first is lower: 1.09 z-score for the first, 1.17 z-score for the second.

First: B15
Second: B16
The binding signal of the first is lower: 1.09 z-score for the first, 1.16 z-score for the second.

First: B17
Second: B18
The binding signal of the first is higher: 1.17 z-score for the first, 1.07 z-score for the second.

B19 and B20 are the same in binding signal: 1.14 z-score for the first, 1.14 z-score for the second.

First: B21
Second: B22
The binding signal of the first is lower: 1.09 z-score for the first, 1.12 z-score for the second.

With B23 the binding signal was 2.51 z-score.

Biological target: T1, LIN28A
Assay: as above

Compared with B1, B2 is lower in binding signal: 3.59 z-score for the first, 2.51 z-score for the second.

Going from B3 to B4, the binding signal rises from -1.04 z-score to 1.17 z-score.

Going from B5 to B6, the binding signal rises from -0.465 z-score to 0.0366 z-score.

Compared with B7, B8 is higher in binding signal: -0.0691 z-score for the first, 0.0877 z-score for the second.

Compared with B9, B10 is lower in binding signal: 0.876 z-score for the first, -0.806 z-score for the second.

First: B11
Second: B12
The binding signal of the first is higher: 0.487 z-score for the first, 0.16 z-score for the second.

First: B13
Second: B14
The binding signal of the first is lower: -0.223 z-score for the first, 0.125 z-score for the second.

Going from B15 to B16, the binding signal rises from -0.0736 z-score to 0.538 z-score.

First: B17
Second: B19
The binding signal of the first is lower: -1.51 z-score for the first, -0.812 z-score for the second.

First: B20
Second: B21
The binding signal of the first is higher: 0.147 z-score for the first, -0.0962 z-score for the second.

Compared with B22, B23 is lower in binding signal: 0.229 z-score for the first, -0.42 z-score for the second.

Biological target: T2, CIRBP
Assay: as above

Going from B1 to B2, the binding signal falls from 2.71 z-score to 2.55 z-score.

First: B3
Second: B4
The binding signal of the first is lower: -0.372 z-score for the first, 0.515 z-score for the second.

Going from B5 to B6, the binding signal rises from -0.538 z-score to 0.863 z-score.

Going from B7 to B8, the binding signal falls from 1.35 z-score to 0.274 z-score.

Compared with B9, B10 is lower in binding signal: 1.53 z-score for the first, 0.62 z-score for the second.

First: B11
Second: B12
The binding signal of the first is lower: -0.0225 z-score for the first, 1.29 z-score for the second.

Compared with B13, B14 is higher in binding signal: -0.0922 z-score for the first, 0.228 z-score for the second.

Compared with B15, B16 is higher in binding signal: -0.722 z-score for the first, -0.304 z-score for the second.

First: B17
Second: B18
The binding signal of the first is lower: 0.105 z-score for the first, 4.58 z-score for the second.

Compared with B19, B20 is higher in binding signal: -2.05 z-score for the first, 0.424 z-score for the second.

Going from B21 to B22, the binding signal rises from 0.238 z-score to 0.333 z-score.

B23 was tested, and the binding signal was -0.601 z-score.

Biological target: T3, DHX36
Assay: as above

First: B1
Second: B2
The binding signal of the first is lower: 2.15 z-score for the first, 2.49 z-score for the second.

First: B3
Second: B4
The binding signal of the first is lower: 0.66 z-score for the first, 0.872 z-score for the second.

Compared with B5, B6 is higher in binding signal: -0.574 z-score for the first, -0.141 z-score for the second.

First: B7
Second: B8
The binding signal of the first is higher: 1.04 z-score for the first, -0.134 z-score for the second.

Compared with B9, B10 is lower in binding signal: 0.92 z-score for the first, -0.157 z-score for the second.

Going from B11 to B12, the binding signal falls from 1.13 z-score to -0.406 z-score.

Going from B13 to B14, the binding signal falls from -0.242 z-score to -1.08 z-score.

Compared with B15, B16 is higher in binding signal: -0.403 z-score for the first, 0.881 z-score for the second.

First: B17
Second: B18
The binding signal of the first is lower: -0.98 z-score for the first, 6.24 z-score for the second.

First: B19
Second: B20
The binding signal of the first is lower: -1.49 z-score for the first, -1.35 z-score for the second.

First: B21
Second: B22
The binding signal of the first is lower: -0.818 z-score for the first, -0.053 z-score for the second.

B23 showed a binding signal of 0.345 z-score.
